Earlier results on one molecule are cited in PMC6680850, “Anion Inhibition Profile of the β-Carbonic Anhydrase from the Opportunist Pathogenic Fungus Malassezia restricta Involved in Dandruff and Seborrheic Dermatitis” (Metabolites, 2019).

The structures appear in SMILES notation.

In this data set the target is hCA II. The settings on record: pH 8.3; cited from earlier work.

A word on the Ki: it is the equilibrium dissociation constant of an inhibitor or competing ligand from its target. Consider `O=NO` [NO2^−, nitrite], for which the Ki is 63 mM.
